Results on 9 molecules are retold here after ChEMBL document CHEMBL1148282, “A novel series of piperidin-4-yl-1,3-dihydroindol-2-ones as agonist and antagonist ligands at the nociceptin receptor” (2004).

Chains of the proteins cited; added tags and fusions are not shown.
UniProt P41146, whole entry: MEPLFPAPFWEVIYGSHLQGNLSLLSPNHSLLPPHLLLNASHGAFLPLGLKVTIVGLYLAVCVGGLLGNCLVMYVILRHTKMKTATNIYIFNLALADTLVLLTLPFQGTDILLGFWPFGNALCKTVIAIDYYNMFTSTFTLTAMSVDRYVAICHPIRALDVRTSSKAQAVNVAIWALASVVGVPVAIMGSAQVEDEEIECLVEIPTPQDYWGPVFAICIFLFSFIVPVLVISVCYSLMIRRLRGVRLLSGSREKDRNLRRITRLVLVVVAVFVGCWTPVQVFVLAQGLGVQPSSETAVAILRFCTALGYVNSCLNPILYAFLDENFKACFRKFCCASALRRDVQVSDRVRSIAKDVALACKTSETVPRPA

Each structure is given as a SMILES string.

The first assay addresses Nociceptin receptor (Homo sapiens) (UniProt P41146). As to the kind of experiment: Percent stimulation of [35S]GTP-gamma-S, binding to human Nociceptin receptor in cell membranes. (In general: GTPγS resists hydrolysis and so accumulates on activated G proteins.)
`O=C1Cc2ccccc2N1C1CCN(Cc2ccccc2)CC1` returned a Stimulation of 18%.

For `O=C1Cc2ccccc2N1C1CCN(C2CCC3CCCCC3C2)CC1` (centres undefined), the Stimulation was 62%.

With `CC(C)[C@H]1CC[C@@H](N2CCC(N3C(=O)Cc4ccccc43)CC2)CC1`, the Stimulation amounted to 100%.

Take `O=C1Cc2ccccc2N1C1CCN(C2CCCC3CCCCC32)CC1` (centres undefined): the Stimulation was 40%.

`O=C1Cc2ccccc2N1C1CCN(C2CCC3CCCC[C@@H]3C2)CC1` (some centres undefined) registered a Stimulation of 78%.

Consider `CC(C)[C@H]1CC[C@H](N2CCC(N3C(=O)Cc4ccccc43)CC2)CC1`, for which the Stimulation was found to be 65%.

Regarding `O=C1Cc2ccccc2N1C1CCN(C2CCc3ccccc3C2)CC1` (centres undefined), the Stimulation was found to be 30.9%.

As to `O=C1Cc2ccccc2N1C1CCN(C2CCCCCCC2)CC1`, the Stimulation stood at 59.1%.

A further assay has the same target. Nature of the assay: Percent stimulation of [35S]GTP-gamma-S, binding to human Nociceptin receptor in cell membranes was determined using cAMP assay.
In turn, `O=C1Cc2ccccc2N1C1CCN(C2C3CCCC2CCC3)CC1` (centres undefined) showed a Stimulation of 45%.
